The values that follow come from patent publication US10669269B2, “Substituted N-(1H-indazol-4-yl)imidazo[1,2-a]pyridine-3-carboxamide compounds as type III receptor tyrosine kinase inhibitors” (ARRAY BIOPHARMA INC., priority 2010, dated 2020).

Protein sequences, listed by entry. Tags and fused reporters are not part of them. Residues count along the entry.
UniProt P07333, 20-972 limits assumed: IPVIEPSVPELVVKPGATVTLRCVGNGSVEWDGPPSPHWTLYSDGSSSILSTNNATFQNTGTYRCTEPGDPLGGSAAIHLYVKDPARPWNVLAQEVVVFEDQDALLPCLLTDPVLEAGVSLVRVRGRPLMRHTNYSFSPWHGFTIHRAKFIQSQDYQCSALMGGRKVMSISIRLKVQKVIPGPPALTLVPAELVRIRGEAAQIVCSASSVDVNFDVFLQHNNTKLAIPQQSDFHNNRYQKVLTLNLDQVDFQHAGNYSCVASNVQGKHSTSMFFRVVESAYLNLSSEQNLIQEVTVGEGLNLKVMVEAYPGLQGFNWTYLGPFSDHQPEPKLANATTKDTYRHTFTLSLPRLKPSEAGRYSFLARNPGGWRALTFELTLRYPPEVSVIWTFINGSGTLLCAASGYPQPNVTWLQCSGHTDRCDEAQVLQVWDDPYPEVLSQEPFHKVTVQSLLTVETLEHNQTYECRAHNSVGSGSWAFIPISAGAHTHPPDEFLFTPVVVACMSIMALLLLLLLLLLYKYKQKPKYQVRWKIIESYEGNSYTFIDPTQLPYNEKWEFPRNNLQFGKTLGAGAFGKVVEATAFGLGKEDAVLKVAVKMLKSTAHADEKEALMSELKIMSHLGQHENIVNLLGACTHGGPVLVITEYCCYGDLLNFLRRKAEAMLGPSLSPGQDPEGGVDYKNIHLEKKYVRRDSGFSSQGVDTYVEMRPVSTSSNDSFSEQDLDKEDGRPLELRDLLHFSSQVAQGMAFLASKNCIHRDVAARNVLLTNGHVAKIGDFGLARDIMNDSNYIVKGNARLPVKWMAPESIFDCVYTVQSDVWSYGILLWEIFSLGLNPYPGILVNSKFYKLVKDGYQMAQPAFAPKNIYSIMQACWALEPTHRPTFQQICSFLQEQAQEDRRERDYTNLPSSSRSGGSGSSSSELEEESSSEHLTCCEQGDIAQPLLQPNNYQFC
UniProt P10721, 26-976 limits assumed: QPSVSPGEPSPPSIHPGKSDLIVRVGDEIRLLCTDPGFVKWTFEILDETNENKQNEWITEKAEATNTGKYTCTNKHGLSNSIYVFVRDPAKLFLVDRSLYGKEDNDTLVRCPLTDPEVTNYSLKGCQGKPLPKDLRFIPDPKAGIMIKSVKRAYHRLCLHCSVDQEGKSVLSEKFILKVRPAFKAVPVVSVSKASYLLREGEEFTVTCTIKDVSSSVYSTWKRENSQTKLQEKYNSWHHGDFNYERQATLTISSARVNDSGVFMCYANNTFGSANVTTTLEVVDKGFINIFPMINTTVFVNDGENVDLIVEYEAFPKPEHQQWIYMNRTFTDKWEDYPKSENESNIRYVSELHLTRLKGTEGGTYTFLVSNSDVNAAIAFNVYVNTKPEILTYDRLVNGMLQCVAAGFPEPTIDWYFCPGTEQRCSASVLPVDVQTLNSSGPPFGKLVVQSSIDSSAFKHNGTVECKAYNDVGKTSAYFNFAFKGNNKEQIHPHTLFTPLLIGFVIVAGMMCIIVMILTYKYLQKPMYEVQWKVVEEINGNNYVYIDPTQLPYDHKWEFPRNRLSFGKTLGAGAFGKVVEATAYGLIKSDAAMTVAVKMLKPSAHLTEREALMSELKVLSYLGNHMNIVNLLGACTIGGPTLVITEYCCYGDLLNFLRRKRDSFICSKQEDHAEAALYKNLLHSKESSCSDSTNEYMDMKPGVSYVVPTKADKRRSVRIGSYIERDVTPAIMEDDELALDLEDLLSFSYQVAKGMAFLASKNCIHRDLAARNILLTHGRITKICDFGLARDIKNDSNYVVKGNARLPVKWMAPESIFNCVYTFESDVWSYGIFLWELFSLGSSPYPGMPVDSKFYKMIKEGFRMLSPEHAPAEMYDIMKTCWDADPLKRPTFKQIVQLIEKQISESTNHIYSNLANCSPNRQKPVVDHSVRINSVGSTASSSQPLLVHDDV
UniProt P09619, 33-1106 limits assumed: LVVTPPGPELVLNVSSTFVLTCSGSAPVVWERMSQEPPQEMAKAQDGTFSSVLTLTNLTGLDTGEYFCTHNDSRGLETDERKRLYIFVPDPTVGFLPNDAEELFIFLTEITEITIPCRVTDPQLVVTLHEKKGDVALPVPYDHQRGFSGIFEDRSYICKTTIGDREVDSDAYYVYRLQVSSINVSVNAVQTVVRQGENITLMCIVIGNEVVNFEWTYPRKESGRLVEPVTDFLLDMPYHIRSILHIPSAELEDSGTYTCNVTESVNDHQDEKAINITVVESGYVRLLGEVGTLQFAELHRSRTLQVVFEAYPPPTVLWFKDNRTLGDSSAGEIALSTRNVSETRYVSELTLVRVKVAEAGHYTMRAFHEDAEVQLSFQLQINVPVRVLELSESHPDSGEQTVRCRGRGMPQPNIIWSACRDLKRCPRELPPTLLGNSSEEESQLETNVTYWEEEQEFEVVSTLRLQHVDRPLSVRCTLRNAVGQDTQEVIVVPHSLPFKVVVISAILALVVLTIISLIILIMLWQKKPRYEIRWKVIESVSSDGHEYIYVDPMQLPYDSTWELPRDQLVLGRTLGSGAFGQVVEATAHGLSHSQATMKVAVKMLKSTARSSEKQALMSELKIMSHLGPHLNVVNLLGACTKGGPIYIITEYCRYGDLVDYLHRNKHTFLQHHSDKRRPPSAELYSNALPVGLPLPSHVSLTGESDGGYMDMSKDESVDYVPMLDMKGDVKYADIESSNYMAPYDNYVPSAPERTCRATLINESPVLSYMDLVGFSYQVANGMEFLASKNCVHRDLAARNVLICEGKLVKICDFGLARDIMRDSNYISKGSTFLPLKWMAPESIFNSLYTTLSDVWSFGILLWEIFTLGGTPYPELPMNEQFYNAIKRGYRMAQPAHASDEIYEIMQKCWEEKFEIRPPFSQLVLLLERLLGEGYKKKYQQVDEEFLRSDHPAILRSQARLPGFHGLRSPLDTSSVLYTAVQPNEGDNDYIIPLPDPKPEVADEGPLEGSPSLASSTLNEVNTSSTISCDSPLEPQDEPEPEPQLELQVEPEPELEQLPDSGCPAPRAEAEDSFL

Each structure is given as a SMILES string.

One experiment has as its target cFMS (Homo sapiens, UniProt P07333). Description: cFMS Cell-Based Assay (Example C). The settings on record: read-out: cFMS Cell ELISA IC50; averaged IC50; phospho-cFMS in THP-1 cells stimulated with 250 ng/mL recombinant human MCSF. The procedure:
The ability of compounds of Formula I to inhibit cFMS activation in cells was determined by the following assay. THP-1 cells (human acute monocytic leukemia cell line) were serum-starved for 4 hours prior to treatment with compounds of Formula I for 1 hour. The concentration of compounds of Formula I was varied over a 9-point, 3-fold dilution series with 5,000 nM typically being the highest dose. Cell culture and treatment were carried out in a humidified 37° C., 5% CO2 incubator. Treated cells were stimulated with 250 ng/mL recombinant human MCSF for 1 minute to induce activation of cFMS. Cells were lysed in a manner which preserves phosphoproteins, and the lysate was analyzed by ELISA (R&D Systems, Human Phospho-M-CSF R DuoSet IC DYC3268), in which total cFMS protein in the lysate is captured and phosphotyrosine residues of cFMS are detected. A standard curve, made using purified phospho-M-CSF R protein, was used to quantify phospho-c-FMS in compound-treated wells. A standard 4-parameter logistic model was fit to the inhibitor dose response curves, with the IC50 being defined as the concentration of inhibitor giving 50 percent of control (POC).

A further experiment addresses c-KIT (Homo sapiens, UniProt P10721). Kind of experiment: c-KIT Cell-Based Assay (Example D). The settings on record: read-out: cKIT Cell ELISA IC50; averaged IC50; phospho-c-KIT in M-07e cells stimulated with 150 ng/ml recombinant human SCF. The procedure:
The ability of compounds of Formula I to inhibit c-KIT activation in cells was determined by the following assay. M-07e cells (human acute megakaryoblastic leukemia cell line) were serum-starved for 4 hours prior to treatment with compounds of Formula I for 1 hour. The concentration of compounds of Formula I was varied over a 9-point, 3-fold dilution series with 5,000 nM typically being the highest dose. Cell culture and treatment were carried out in a humidified 37° C., 5% CO2 incubator. Treated cells were stimulated with 150 ng/ml recombinant human SCF for 4 minutes to induce activation of c-KIT. Cells were lysed in a manner which preserves phosphoproteins, and the lysate was analyzed by ELISA (R&D Systems, Human Phospho-SCF R DuoSet IC DYC3527), in which total c-KIT protein in the lysate is captured and phosphotyrosine residues of c-Kit are detected. A standard curve, made using purified phospho-SCF R protein, was used to quantify phospho-c-KIT in compound-treated wells. A standard 4-parameter logistic model was fit to the inhibitor dose response curves, with the IC50 being defined as the concentration of inhibitor giving 50 percent of control (POC).

For experiment [1], the target named is T1, PDGFR beta (Homo sapiens, UniProt P09619). Kind of experiment: Phospho PDGFR LICOR Cell Assay (Example B). The settings on record: read-out: PDGFR Cell LICOR IC50; averaged IC50; PDGFR beta phosphorylation in HS27 human fibroblast cell line, PDGF-BB stimulation 10 minutes, normalized to total ERK. The procedure:
Compounds were screened for inhibition of PDGFR beta phosphorylation in the HS27 human fibroblast cell line. Cells were seeded into a 96 well tissue culture plate, then incubated overnight in a 37° C./5% CO2 incubator. The following day, cells were treated for one hour with test compound dilutions. After stimulation with PDGF-BB ligand for 10 minutes, cells were washed with PBS and fixed in 3.7% formaldehyde in PBS for 10 minutes. This was followed by washing in PBS/0.2% Triton X-100 and permeabilizing in 100% MeOH for 10 minutes. Cells were incubated in blocking buffer for 1 hour. Antibodies to phosphorylated PDGFRβ and total ERK were added to the cells and incubated for 3 hours. After washing with PBS/0.2% Triton X-100, the cells were incubated with fluorescently-labeled secondary antibodies for an additional hour. Cells were then washed with PBS and analyzed for fluorescence at both wavelengths using the Odyssey Infrared Imaging System (LI-COR Biosciences). Phosphorylated PDGFR signal was normalized to total ERK signal. A standard 4-parameter logistic model was fit to the inhibitor dose response curves, with the IC50 being defined as the concentration of inhibitor giving 50 percent of control (POC).

Experiment [2] deals with T1, PDGFR beta. Description: Phospho PDGFR Cell Assay, sandwich ELISA (Example A). The settings on record: read-out: PDGFR Cell ELISA IC50, averaged IC50, PDGFR beta phosphorylation in HS27 human fibroblast cell line, PDGF-BB stimulation 5 minutes. The procedure: Compounds were screened for inhibition of PDGFR beta phosphorylation in the HS27 human fibroblast cell line. Cells were seeded into a 96 well tissue culture plate, then incubated overnight in a 37° C., 5% CO2 incubator. The following day, cells were treated for one hour with test compound dilutions. After stimulation with PDGF-BB ligand for 5 minutes, cells were lysed and added to a sandwich ELISA plate from R&D Systems to detect levels of phospho PDGFR beta. A standard 4-parameter logistic model was fit to the inhibitor dose response curves, with the IC50 being defined as the concentration of inhibitor giving 50 percent of control (POC).

`O=C(Nc1cccc2c1cnn2Cc1ccccc1)c1cnc2ccc(F)cn12`: the results for the IC50 at cFMS, at c-KIT and on PDGFR beta [1] were 57.8 nM, 36.5 nM and 21.9 nM, respectively.
For `COCCOc1ccn2c(C(=O)Nc3cccc4c3cnn4Cc3ccc(F)cc3F)cnc2c1`, the IC50 at PDGFR beta [2] is 26.3 nM; on cFMS, 10.5 nM; at c-KIT, 8.4 nM.
